How the values were obtained:
[1] = target: T1, NKA receptor (hamster urinary bladder) (Mesocricetus auratus, UniProt P51144); assay: [125I]NKA receptor binding in hamster urinary bladder membranes (standard control); conditions: FIG. 4
T1 construct: the hamster urinary bladder membranes were run as a standard control; from tissue; host or cells: hamster urinary bladder membranes
Protocol: (§1) The homogenate is centrifuged at 48,000×g for 10 min at 4° C.

Amino acid sequences for entries named in this document (tags omitted).
UniProt P51144, whole entry: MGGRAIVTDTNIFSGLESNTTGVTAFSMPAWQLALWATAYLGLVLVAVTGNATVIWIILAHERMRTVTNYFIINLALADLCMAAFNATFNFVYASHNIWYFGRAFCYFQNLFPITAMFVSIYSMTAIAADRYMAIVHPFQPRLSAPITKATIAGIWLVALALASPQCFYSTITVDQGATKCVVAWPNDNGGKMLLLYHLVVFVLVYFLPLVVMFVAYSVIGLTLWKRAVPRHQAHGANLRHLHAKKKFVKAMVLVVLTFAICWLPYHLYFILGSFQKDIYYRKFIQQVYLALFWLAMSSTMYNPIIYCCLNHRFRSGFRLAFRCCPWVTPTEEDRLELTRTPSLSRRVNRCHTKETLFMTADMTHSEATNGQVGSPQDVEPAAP
UniProt P05363, whole entry: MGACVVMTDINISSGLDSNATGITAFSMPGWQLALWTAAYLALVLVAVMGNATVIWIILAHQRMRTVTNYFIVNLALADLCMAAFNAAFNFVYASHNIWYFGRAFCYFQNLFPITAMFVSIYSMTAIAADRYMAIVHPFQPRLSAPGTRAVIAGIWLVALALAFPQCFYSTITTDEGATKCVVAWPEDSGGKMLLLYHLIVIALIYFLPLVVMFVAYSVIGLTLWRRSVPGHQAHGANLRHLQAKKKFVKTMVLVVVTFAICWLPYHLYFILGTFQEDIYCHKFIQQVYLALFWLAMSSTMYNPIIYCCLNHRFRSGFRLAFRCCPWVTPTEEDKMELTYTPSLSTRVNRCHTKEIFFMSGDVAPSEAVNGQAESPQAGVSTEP

neurokinin A receptor [2] = target: T2, neurokinin A receptor (Bos taurus, UniProt P05363); assay: [125I]NKA receptor binding (saturation/Scatchard and competition) in B82 cells transfected with pSKR56S cDNA (SKLKB82#n); parameters: species or system bovine; conditions: SKLKB82#3 cells; FIG. 4
T2 construct: expressed in transfected cells
Protocol: as §1

neurokinin A receptor [3] = target: T2, neurokinin A receptor; assay: [3H]inositol-1-phosphate (IP1) accumulation in SKLKB82#3 cells; type: cell-based, bovine; conditions: three separate experiments in duplicate, FIG. 5

EC50 (neurokinin A receptor [3])	Substance	potency rank-order, inhibition of [125I]NKA receptor binding (KI) [1]	potency rank-order, inhibition of [125I]NKA receptor binding (KI) (neurokinin A receptor [2])
–	neurokinin A [NKA]	the most potent inhibitor of binding	–
4.8 µM	substance P	followed by Nle^10 NKA (4-10), substance P, and senktide	followed by Nle^10 NKA (4-10), substance P, and senktide
